Data: US6638943B2 (The University of Tennessee Research Foundation, priority 2001, dated 2003)
Read-outs that look alike come from different tables or passages of the source.

Chains of the proteins cited; added tags and fusions are not shown.
UniProt P08913, whole entry: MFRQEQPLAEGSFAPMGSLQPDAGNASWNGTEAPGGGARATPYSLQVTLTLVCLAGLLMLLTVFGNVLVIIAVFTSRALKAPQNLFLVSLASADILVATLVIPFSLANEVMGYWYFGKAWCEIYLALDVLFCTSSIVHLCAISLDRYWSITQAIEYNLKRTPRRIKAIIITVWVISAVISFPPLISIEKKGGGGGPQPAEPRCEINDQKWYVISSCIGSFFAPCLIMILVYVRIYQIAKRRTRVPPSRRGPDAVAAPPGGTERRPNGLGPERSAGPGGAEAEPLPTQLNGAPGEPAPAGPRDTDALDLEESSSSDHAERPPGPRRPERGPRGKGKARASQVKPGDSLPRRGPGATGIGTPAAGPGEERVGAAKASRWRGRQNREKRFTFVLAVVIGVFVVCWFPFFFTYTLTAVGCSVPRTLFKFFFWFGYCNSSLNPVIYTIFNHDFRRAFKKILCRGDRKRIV
UniProt P18089, whole entry: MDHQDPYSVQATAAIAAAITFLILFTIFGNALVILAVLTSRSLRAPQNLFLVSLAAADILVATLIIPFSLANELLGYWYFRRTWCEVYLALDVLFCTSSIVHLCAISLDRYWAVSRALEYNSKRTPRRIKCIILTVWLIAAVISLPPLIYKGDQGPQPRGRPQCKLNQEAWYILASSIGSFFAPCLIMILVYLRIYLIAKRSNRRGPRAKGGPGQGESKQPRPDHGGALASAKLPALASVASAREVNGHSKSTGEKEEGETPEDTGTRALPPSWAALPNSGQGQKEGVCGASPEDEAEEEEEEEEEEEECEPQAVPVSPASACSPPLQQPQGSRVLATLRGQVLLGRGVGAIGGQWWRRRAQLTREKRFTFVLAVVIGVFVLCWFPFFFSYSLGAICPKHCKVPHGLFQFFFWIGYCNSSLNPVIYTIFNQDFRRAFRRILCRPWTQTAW
UniProt P18825, whole entry: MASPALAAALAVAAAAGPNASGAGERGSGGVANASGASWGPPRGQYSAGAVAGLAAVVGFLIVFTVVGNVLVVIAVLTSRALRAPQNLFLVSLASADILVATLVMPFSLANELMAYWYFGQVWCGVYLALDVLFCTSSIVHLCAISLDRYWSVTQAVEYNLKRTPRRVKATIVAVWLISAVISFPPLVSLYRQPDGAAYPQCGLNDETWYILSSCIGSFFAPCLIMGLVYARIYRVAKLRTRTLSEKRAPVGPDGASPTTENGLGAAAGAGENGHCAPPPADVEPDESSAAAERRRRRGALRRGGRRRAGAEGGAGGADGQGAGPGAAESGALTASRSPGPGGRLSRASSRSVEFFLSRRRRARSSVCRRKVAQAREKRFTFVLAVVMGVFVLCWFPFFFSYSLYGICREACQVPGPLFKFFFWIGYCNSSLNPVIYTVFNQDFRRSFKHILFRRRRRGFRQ
UniProt P35348, whole entry: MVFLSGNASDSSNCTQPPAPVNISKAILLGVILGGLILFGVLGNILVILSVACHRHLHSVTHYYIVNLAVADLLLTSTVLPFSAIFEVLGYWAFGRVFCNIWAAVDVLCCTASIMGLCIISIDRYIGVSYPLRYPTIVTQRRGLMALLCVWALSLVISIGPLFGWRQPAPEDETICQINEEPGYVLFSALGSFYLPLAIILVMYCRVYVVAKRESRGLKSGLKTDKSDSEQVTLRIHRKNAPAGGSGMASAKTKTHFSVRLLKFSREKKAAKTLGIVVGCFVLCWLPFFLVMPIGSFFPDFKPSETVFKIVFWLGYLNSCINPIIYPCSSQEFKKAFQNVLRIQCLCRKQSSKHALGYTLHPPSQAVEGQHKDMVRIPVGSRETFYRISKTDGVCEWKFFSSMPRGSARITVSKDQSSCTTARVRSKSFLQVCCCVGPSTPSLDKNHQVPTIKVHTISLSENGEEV
UniProt P35368, whole entry: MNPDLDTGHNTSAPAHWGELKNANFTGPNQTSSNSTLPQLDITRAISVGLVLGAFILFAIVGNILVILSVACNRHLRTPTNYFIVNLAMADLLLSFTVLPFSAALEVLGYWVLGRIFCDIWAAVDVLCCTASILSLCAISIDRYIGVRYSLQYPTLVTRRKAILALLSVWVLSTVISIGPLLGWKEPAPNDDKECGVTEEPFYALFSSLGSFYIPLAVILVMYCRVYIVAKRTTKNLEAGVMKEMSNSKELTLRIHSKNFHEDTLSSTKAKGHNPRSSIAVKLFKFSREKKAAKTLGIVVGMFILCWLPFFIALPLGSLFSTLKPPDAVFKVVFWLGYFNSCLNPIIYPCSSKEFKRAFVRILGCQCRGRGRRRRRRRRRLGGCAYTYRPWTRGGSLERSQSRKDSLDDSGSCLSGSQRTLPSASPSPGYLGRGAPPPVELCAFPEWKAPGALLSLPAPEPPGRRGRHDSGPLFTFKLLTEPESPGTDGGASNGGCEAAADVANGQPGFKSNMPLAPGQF
UniProt P25100, whole entry: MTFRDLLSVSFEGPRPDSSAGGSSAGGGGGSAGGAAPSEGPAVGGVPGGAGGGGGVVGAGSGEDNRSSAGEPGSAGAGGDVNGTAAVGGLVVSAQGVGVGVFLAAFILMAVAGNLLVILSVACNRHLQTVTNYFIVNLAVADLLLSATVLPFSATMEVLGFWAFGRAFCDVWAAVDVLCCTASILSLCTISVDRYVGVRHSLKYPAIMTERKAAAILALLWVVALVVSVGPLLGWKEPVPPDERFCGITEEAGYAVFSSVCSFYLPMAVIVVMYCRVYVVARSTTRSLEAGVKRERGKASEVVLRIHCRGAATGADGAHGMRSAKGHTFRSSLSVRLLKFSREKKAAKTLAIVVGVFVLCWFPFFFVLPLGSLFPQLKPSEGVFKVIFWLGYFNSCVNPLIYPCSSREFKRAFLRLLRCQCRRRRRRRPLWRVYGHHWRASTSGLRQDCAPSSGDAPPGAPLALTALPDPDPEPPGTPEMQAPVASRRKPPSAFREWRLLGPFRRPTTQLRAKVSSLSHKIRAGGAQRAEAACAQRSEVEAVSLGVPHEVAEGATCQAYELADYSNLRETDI

How the values were obtained:
human α2a-AR [1] = biological target: T1, human α2a-AR (Homo sapiens, UniProt P08913); assay: [3H]Rauwolscine equilibrium competition binding, human α2a-AR expressed in CHO cells; conditions: for pKi α2a-AR: Table 2, human α2a-AR in CHO cells, mean ± SEM of n = 4-6
human α2b-AR = human α2b-AR (Homo sapiens, UniProt P18089); assay: [3H]Rauwolscine equilibrium competition binding, human α2b-AR expressed in CHO cells
human α2c-AR [2] = biological target: T2, human α2c-AR (Homo sapiens, UniProt P18825); assay: [3H]Rauwolscine equilibrium competition binding, human α2c-AR expressed in CHO cells
human α1a-AR = human α1a-AR (Homo sapiens, UniProt P35348); assay: [3H]prazosin equilibrium competition binding, human α1a-AR expressed in HEK cells; conditions: Table 3, mean ± SEM of n = 4-6
human α1b-AR = human α1b-AR (Homo sapiens, UniProt P35368); assay: [3H]prazosin equilibrium competition binding, human α1b-AR expressed in HEK cells; conditions: Table 3, mean ± SEM of n = 4-6
human α1d-AR = human α1d-AR (Homo sapiens, UniProt P25100); assay: [3H]prazosin equilibrium competition binding, human α1d-AR expressed in HEK cells; conditions: Table 3, mean ± SEM of n = 4-6
human α2a-AR [3] = biological target: T1, human α2a-AR; assay: Reversal of medetomidine mediated inhibition of forskolin-induced cAMP (6 CRE-LUC reporter), CHO cells expressing α2a-AR; format: cell-based; conditions: read-out: Effective Concentration-50 (nM ± SEM) α2a-AR; reversal of medetomidine (10 nM) effect on forskolin (5 μM) cAMP response; mean ± SEM of n=3-4
human α2c-AR [4] = biological target: T2, human α2c-AR; assay: Reversal of medetomidine mediated inhibition of forskolin-induced cAMP (6 CRE-LUC reporter), CHO cells expressing α2c-AR; format: cell-based

Row | Structure (SMILES) | α2a/α2b Selectivity = Ki(α2b)/Ki(α2a) (human α2a-AR [1]; Table 1, ratio of Ki values, tested form: 2HCl, 2.5H2O) | pKi α2a-AR (human α2a-AR [1]; tested form: 2HCl, 2.5H2O) | pKi α2b-AR (human α2b-AR; tested form: 2HCl, 2.5H2O) | pKi α2a-AR (human α2a-AR [1]) | pKi α2b-AR (human α2b-AR) | pKi α2c-AR (human α2c-AR [2]; Table 3, CHO cells, [3H]rauwolscine, mean ± SEM of n = 4-6) | binding affinity for α2c-AR greater than on the α1-AR subtypes (human α2c-AR [2]; from Table 3) [fold] | binding potency for α2c-AR greater than binding to α2a-AR (human α2c-AR [2]; from pKi values of Table 2) [fold] | binding potency for α2c-AR greater than binding to α2b-AR (human α2c-AR [2]; from pKi values of Table 2) [fold] | selectivity for the human α2c-AR subtype (in words) (human α2c-AR [2]; summary of Table 2) | pKi α1a-AR (human α1a-AR) | pKi α1b-AR (human α1b-AR) | pKi α1d-AR (human α1d-AR) | EC50 (human α2a-AR [3]) [nM] | α2c-AR Selectivity Ratio (EC50 on α2a-AR relative to α2c-AR) (human α2c-AR [4]; Table 4) | more potent at inhibiting the action of medetomidine on α2c-AR versus α2a-AR (human α2c-AR [4]; from Table 4) [fold] | EC50 (human α2c-AR [4]; read-out: Effective Concentration-50 (nM ± SEM) α2c-AR, reversal of medetomidine (10 nM) effect on forskolin (5 μM) cAMP response, mean ± SEM of n=3-4) [nM]
1 | O=C(NCCCCCCCCCNC(=O)[C@@H]1[C@H]2C[C@H]3c4[nH]c5ccccc5c4CCN3C[C@@H]2CC[C@@H]1O)[C@@H]1[C@H]2C[C@H]3c4[nH]c5ccccc5c4CCN3C[C@@H]2CC[C@@H]1O | 35.8 | 8.40 ± 0.12 | 7.03 ± 0.02 |  |  |  |  |  |  |  |  |  |  |  |  |  | 
2 | O=C(NCCCCCCCCCCCCCCCCCCCCCCCCNC(=O)[C@@H]1[C@H]2C[C@H]3c4[nH]c5ccccc5c4CCN3C[C@@H]2CC[C@@H]1O)[C@@H]1[C@H]2C[C@H]3c4[nH]c5ccccc5c4CCN3C[C@@H]2CC[C@@H]1O |  |  |  | 6.39 ± 0.10 | 5.41 ± 0.02 | 8.30 ± 0.10 | ≥ 2450 | 81 | 776 | potent and selective ligands | 4.52 ± 0.01 | 4.91 ± 0.01 | 4.51 ± 0.08 | 3180 | 28.8 | 29 | 110
